Patent publication US20200231974A1 (published 2020)

Molecular target: T1, HCMV pp65 peptide on HLA-B*07:02 (human)
T1 peptide: TPRVTGGGAM
Test: multimer staining

B1: HBD4.1.S9-3.A1 (SEQ0711 and SEQ0712) (TCR, V domains shown)
Valpha: TQLLEQSPQFLSIQEGENLTVYCNSSSVFSSLQWYRQEPGEGPVLLVTVVTGGEVKKLKRLTFQFGDARKDSSLHITAAQPGDTGLYLCAGARGGFKTIFGAGTRLFVKA
Vbeta: EAQVTQNPRYLITVTGKKLTVTCSQNMNHEYMSWYRQDPGLGLRQIYYSMNVEVTDKGDVPEGYKVSRKEKRNFPLILESPSPNQTSLYFCASSLSPSTGNYGYTFGSGTRLTVV
Question: Does B1 bind?
Answer: recognises
